{
  "source": "PubChem BioAssay AID651654",
  "about": "(Broad Institute, 2012)",
  "note": "The list shows a part of the results, in another mix than the full data. Some structures show a salt or complex split into parts, the way the source records it. Active and inactive are the calls of the source.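 Rule for the calls: active = mean lysis activity across replicates of at least 80%, whatever share of replicates individually reach that level; inactive = mean lysis activity below 80%.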",
  "data": [
    {"assay": "fungicidal lysis via adenylate kinase leakage – AK release luminescence, single concentration, primary screen (AID 651654)", "settings": "C. neoformans lysis, 4 h, at 15 µM, hits give high values, normalised: neutral wells 0, clomiphene wells 100", "procedure,_shortened": "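Signal: Adenylate kinase release luminescence | Assay system: Log-phase Cryptococcus neoformans yeast cells | Input: Cells at 5 × 10^6 per mL | Buffer or medium: Fresh YPD growth medium | Compound: Single dose | Schedule: Static 4 h at 37 °C with compound, 1 h detection | Controls: Clomiphene | Read-out: Luminescence rise reflecting yeast cell lysis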", "values": [
      {"compound": "O=[N+]([O-])c1cc([N+](=O)[O-])c(Nc2ccccn2)c([N+](=O)[O-])c1", "lysis activity": "inactive: -11%"},
      {"compound": "COc1ccccc1OP(C)(=O)Nc1ccc(C)cc1C", "note": "(stereo unspecified)", "lysis activity": "inactive: 0.807%"},
      {"compound": "CP(=O)(Nc1ccccn1)Oc1ccccc1", "note": "(stereo unspecified)", "lysis activity": "inactive: -0.91%"},
      {"compound": "CCc1ccc(OP(C)(=O)O)cc1", "lysis activity": "inactive: -1.93%"},
      {"compound": "COc1ccccc1OP(C)(=O)Nc1ccc(Br)cc1", "note": "(stereo unspecified)", "lysis activity": "inactive: -0.373%"},
      {"compound": "COc1ccc(OP(C)(=O)Nc2ccccn2)cc1", "note": "(stereo unspecified)", "lysis activity": "inactive: 11.6%"},
      {"compound": "CN(C)CCOC(=O)C(O)(c1ccccc1)C1CCCC1", "note": "(stereo unspecified)", "lysis activity": "inactive: 1.46%"},
      {"compound": "CP(=O)(Nc1ccc(Cl)cc1Cl)Oc1ccccc1", "note": "(stereo unspecified)", "lysis activity": "inactive: 0.178%"},
      {"compound": "O=C1C(O)=C([N+](=O)[O-])C(=O)C(O)=C1[N+](=O)[O-]", "lysis activity": "inactive: 1.33%"},
      {"compound": "COc1ccccc1OP(C)(=O)Nc1ccc(C)c(C)c1", "note": "(stereo unspecified)", "lysis activity": "inactive: -2.4%"},
      {"compound": "CCOC(=O)c1ccc(NP(C)(=O)Oc2ccc(Cl)cc2)cc1", "note": "(stereo unspecified)", "lysis activity": "inactive: -2.59%"},
      {"compound": "CP(=O)(OC12CC3CC(CC(C3)C1)C2)OC12CC3CC(CC(C3)C1)C2", "lysis activity": "inactive: 0.079%"},
      {"compound": "COc1ccccc1OP(C)(=O)Nc1ccccc1Br", "note": "(stereo unspecified)", "lysis activity": "inactive: 0.517%"},
      {"compound": "CC(C)(C)c1ccc(OP(C)(=O)O)cc1", "lysis activity": "inactive: 1.67%"},
      {"compound": "CP(=O)(Nc1ccc(Cl)cc1)Oc1ccc(F)cc1", "note": "(stereo unspecified)", "lysis activity": "inactive: -0.59%"},
      {"compound": "COc1ccc(OP(C)(=O)Nc2ccc(Br)cc2)cc1", "note": "(stereo unspecified)", "lysis activity": "inactive: 1.18%"},
      {"compound": "CCN(CC)CC(O)COC(=O)C(O)(c1ccccc1)C1CCCCC1", "note": "(stereo unspecified)", "lysis activity": "inactive: -1.1%"},
      {"compound": "O=C(OCCCN1CCCC1)C(O)(c1ccccc1)C1CCCCC1", "note": "(stereo unspecified)", "lysis activity": "inactive: -0.898%"},
      {"compound": "COc1ccccc1OP(C)(=O)Nc1c(C)n(C)n(-c2ccccc2)c1=O", "note": "(stereo unspecified)", "lysis activity": "inactive: 1.52%"},
      {"compound": "CCc1ccc(OP(C)(=O)Nc2cccnc2)cc1", "note": "(stereo unspecified)", "lysis activity": "inactive: -1.13%"},
      {"compound": "CP(=O)(Oc1ccccc1)N1CCOC1=O", "note": "(stereo unspecified)", "lysis activity": "inactive: -2.46%"},
      {"compound": "CP(=O)(Nc1ccc2c(c1)OCCO2)Oc1ccccc1", "note": "(stereo unspecified)", "lysis activity": "inactive: -2.09%"},
      {"compound": "Cc1ccccc1NP(C)(=O)Nc1ccccc1C", "lysis activity": "inactive: -0.772%"},
      {"compound": "CCOP(C)(=S)SCC(=O)NC(C)(CC)C(=O)O", "note": "(stereo unspecified)", "lysis activity": "inactive: -4.97%"},
      {"compound": "O=[N+]([O-])c1ccc(OP2(=O)COCCO2)cc1", "note": "(stereo unspecified)", "lysis activity": "inactive: -5.82%"},
      {"compound": "Cc1cc(-c2cccc3ccccc23)c(C)cn1.O=[N+]([O-])c1cc([N+](=O)[O-])c(O)c([N+](=O)[O-])c1", "lysis activity": "inactive: 13.5%"},
      {"compound": "Cc1c(C(c2ccc3c(c2)OCO3)c2c(C)n(C)n(-c3ccccc3)c2=O)c(=O)n(-c2ccccc2)n1C.O=[N+]([O-])c1cc([N+](=O)[O-])c(O)c([N+](=O)[O-])c1", "lysis activity": "inactive: 4.21%"},
      {"compound": "COc1ccc(OP(C)(=O)Nc2cccc(Br)c2)cc1", "note": "(stereo unspecified)", "lysis activity": "inactive: 0.258%"},
      {"compound": "CN(C)CCOC(=O)C(O)(c1ccccc1)C1CCCCC1", "note": "(stereo unspecified)", "lysis activity": "inactive: 3.83%"},
      {"compound": "COc1ccc(NP(C)(=O)Oc2ccccc2OC)cc1", "note": "(stereo unspecified)", "lysis activity": "inactive: -0.327%"},
      {"compound": "Cc1c([N+](=O)[O-])cc([N+](=O)[O-])c(Br)c1[N+](=O)[O-]", "lysis activity": "inactive: -1.49%"},
      {"compound": "CCN(CC)CCCOC(=O)C(O)(c1ccccc1)C1CCCCC1", "note": "(stereo unspecified)", "lysis activity": "inactive: 0.944%"},
      {"compound": "CP(=O)(Nc1ccccc1)Oc1ccc(F)cc1", "note": "(stereo unspecified)", "lysis activity": "inactive: -0.731%"},
      {"compound": "O=[N+]([O-])c1cc([N+](=O)[O-])c(OC2CCCCC2O)c([N+](=O)[O-])c1", "note": "(stereo unspecified)", "lysis activity": "inactive: 6.03%"},
      {"compound": "CCCCCOc1ccc(NP(C)(=O)Oc2ccc(Cl)cc2Cl)cc1", "note": "(stereo unspecified)", "lysis activity": "inactive: -0.521%"},
      {"compound": "CCOC(=O)c1ccc(NP(C)(=O)Oc2ccc(F)cc2)cc1", "note": "(stereo unspecified)", "lysis activity": "inactive: 0.029%"},
      {"compound": "O=C(OCCN1CCN(CCOCc2ccccc2)CC1)C(O)(c1ccccc1)c1ccccc1", "lysis activity": "inactive: 1.79%"},
      {"compound": "COc1ccc2c(c1O)-c1c(O)c(OC)cc3c1[C@H](C2)[N+](C)(C)CC3.O=[N+]([O-])c1cc([N+](=O)[O-])c([O-])c([N+](=O)[O-])c1[O-]", "lysis activity": "inactive: -0.96%"},
      {"compound": "O=[N+]([O-])c1cc([N+](=O)[O-])c(Nc2ccc(Cl)cc2)c([N+](=O)[O-])c1", "lysis activity": "inactive: -3.95%"},
      {"compound": "CP(=O)(Nc1ccccc1F)Oc1ccccc1", "note": "(stereo unspecified)", "lysis activity": "inactive: -2.23%"},
      {"compound": "Cc1ccc(C)c(NP(C)(=O)Oc2ccccc2)c1", "note": "(stereo unspecified)", "lysis activity": "inactive: -1.06%"},
      {"compound": "Cc1cc(C)cc(OP(C)(=O)Nc2ccccn2)c1", "note": "(stereo unspecified)", "lysis activity": "inactive: 0.488%"},
      {"compound": "COc1ccccc1OP(C)(=O)Nc1cccc(Br)c1", "note": "(stereo unspecified)", "lysis activity": "inactive: 1.71%"},
      {"compound": "Cc1cc(C)cc(OP(C)(=O)Nc2ccc(C)cc2C)c1", "note": "(stereo unspecified)", "lysis activity": "inactive: -4.04%"},
      {"compound": "CC1=NCCc2c1[nH]c1ccccc21.O=[N+]([O-])c1cc([N+](=O)[O-])c(O)c([N+](=O)[O-])c1", "lysis activity": "inactive: -3.22%"},
      {"compound": "O=C(O)c1cccc(Nc2c([N+](=O)[O-])cc([N+](=O)[O-])cc2[N+](=O)[O-])c1", "lysis activity": "inactive: -6.14%"},
      {"compound": "COc1ccccc1OP(C)(=O)Nc1c(C)cccc1C", "note": "(stereo unspecified)", "lysis activity": "inactive: 0.113%"},
      {"compound": "CCCOc1ccc(NP(C)(=O)Oc2ccc(Cl)cc2)cc1", "note": "(stereo unspecified)", "lysis activity": "inactive: -0.803%"},
      {"compound": "CCOC(=O)C(CC)C1=NC(C)(C)Cc2ccccc21.O=[N+]([O-])c1cc([N+](=O)[O-])c(O)c([N+](=O)[O-])c1", "note": "(stereo unspecified)", "lysis activity": "inactive: 0.061%"},
      {"compound": "CC1=C2N=C(C=C3N=C(C(C)=C4[N-][C@@](C)([C@@H]5N=C1[C@](C)(CCC(=O)NC[C@@H](C)OP(=O)([O-])O[C@H]1[C@@H](O)[C@@H](n6cnc7cc(C)c(C)cc76)O[C@@H]1CO)[C@H]5CC(N)=O)[C@@](C)(CC(N)=O)[C@@H]4CCC(N)=O)[C@@](C)(CC(N)=O)[C@@H]3CCC(N)=O)C(C)(C)[C@@H]2CCC(N)=O.[C-]#N.[Co+3]", "lysis activity": "inactive: -1.23%"},
      {"compound": "O=[N+]([O-])c1cc([N+](=O)[O-])c(Nc2nnnn2CCO)c([N+](=O)[O-])c1", "lysis activity": "inactive: -2.51%"},
      {"compound": "O=[N+]([O-])c1cc([N+](=O)[O-])c(-c2cnn(-c3ccccc3)c2)c([N+](=O)[O-])c1", "lysis activity": "inactive: -11.1%"},
      {"compound": "Cc1nc2ccc3ccccc3c2s1.O=[N+]([O-])c1cc([N+](=O)[O-])c(O)c([N+](=O)[O-])c1", "lysis activity": "inactive: 6.49%"},
      {"compound": "O=[N+]([O-])c1cc([N+](=O)[O-])c(-n2nnc3ccccc32)c([N+](=O)[O-])c1", "lysis activity": "inactive: -0.13%"},
      {"compound": "CN(Cc1cccnc1)C(=O)COc1ccc(Cl)c(Cl)c1.O=[N+]([O-])c1cc([N+](=O)[O-])c(O)c([N+](=O)[O-])c1", "lysis activity": "inactive: 2.71%"},
      {"compound": "CCOC(=O)c1ccc(NP(C)(=O)Oc2ccc(OC)cc2)cc1", "note": "(stereo unspecified)", "lysis activity": "inactive: 3.21%"},
      {"compound": "O=[N+]([O-])c1cc([N+](=O)[O-])c(O)c([N+](=O)[O-])c1.c1ccc(Oc2ccncc2)cc1", "lysis activity": "inactive: 2.23%"},
      {"compound": "CCOP(C)(=S)SCC(=O)NC(C)C(=O)O", "note": "(stereo unspecified)", "lysis activity": "inactive: 0.328%"},
      {"compound": "CP(=O)(Nc1ccccn1)Oc1ccc(Cl)cc1", "note": "(stereo unspecified)", "lysis activity": "inactive: 0.956%"},
      {"compound": "CP(=O)(Oc1ccccc1)OC(c1ccccc1)C(F)(F)F", "note": "(stereo unspecified)", "lysis activity": "inactive: -0.141%"},
      {"compound": "Cc1cccc(C)c1OP(C)(=O)Nc1ccc(SC(F)(F)F)cc1", "note": "(stereo unspecified)", "lysis activity": "inactive: -1.24%"},
      {"compound": "Cc1ccc(Nc2c([N+](=O)[O-])cc([N+](=O)[O-])cc2[N+](=O)[O-])cc1", "lysis activity": "inactive: -3.36%"},
      {"compound": "CP(=O)(Nc1ccc(SC(F)(F)F)cc1)Oc1ccc(Cl)cc1", "note": "(stereo unspecified)", "lysis activity": "inactive: -0.096%"},
      {"compound": "CCc1ccc(OP(C)(=O)N2CCN(c3ccc([N+](=O)[O-])cc3)CC2)cc1", "note": "(stereo unspecified)", "lysis activity": "inactive: 6.14%"},
      {"compound": "CP(=S)(Nn1cnnc1)Oc1ccccc1", "note": "(stereo unspecified)", "lysis activity": "inactive: -3.66%"},
      {"compound": "Cc1ccc(NP(C)(=O)Oc2ccccc2)c(C)c1", "note": "(stereo unspecified)", "lysis activity": "inactive: 1.2%"},
      {"compound": "COc1ccccc1OP(C)(=O)Nc1ccc(C)cc1", "note": "(stereo unspecified)", "lysis activity": "inactive: 2.28%"},
      {"compound": "CCOC(=O)c1ccc(NP(C)(=O)Oc2ccccc2)cc1", "note": "(stereo unspecified)", "lysis activity": "inactive: 0.698%"},
      {"compound": "Cc1cc(C)cc(OP(C)(N)=O)c1", "note": "(stereo unspecified)", "lysis activity": "inactive: 0.473%"},
      {"compound": "COc1ccc(OP(C)(=O)Nc2cccc(F)c2)cc1", "note": "(stereo unspecified)", "lysis activity": "inactive: -1.26%"},
      {"compound": "O=[N+]([O-])c1cc([N+](=O)[O-])c(Nc2cccnc2)c([N+](=O)[O-])c1", "lysis activity": "inactive: 1.94%"}
    ]}
  ]
}
